Assay results published in PMC12588083, “Validated antimalarial drug target discovery using genome-scale metabolic modeling” (Antimicrobial Agents and Chemotherapy, 2025).

System: CMP
Experiment: purified protein, by the assay type
Conditions: other: phosphate acceptor, ATP as phosphate donor, 25°C, pH 7.6

| Substance | Km [µM] |
| --- | --- |
| PfUCK (Plasmodium falciparum 3D7) | 28 ± 9 |
| hUCK (Homo sapiens) | 24.8 ± 2.6 |
